Results as given in patent US20200291127A1, “ANTIBODIES AND METHODS OF USE THEREOF” (AbeXXa Biologics, Inc., priority 2020, published 2020).

Chains of the proteins cited; added tags and fusions are not shown. Residues count along the entry.
UniProt P13747, 22-305: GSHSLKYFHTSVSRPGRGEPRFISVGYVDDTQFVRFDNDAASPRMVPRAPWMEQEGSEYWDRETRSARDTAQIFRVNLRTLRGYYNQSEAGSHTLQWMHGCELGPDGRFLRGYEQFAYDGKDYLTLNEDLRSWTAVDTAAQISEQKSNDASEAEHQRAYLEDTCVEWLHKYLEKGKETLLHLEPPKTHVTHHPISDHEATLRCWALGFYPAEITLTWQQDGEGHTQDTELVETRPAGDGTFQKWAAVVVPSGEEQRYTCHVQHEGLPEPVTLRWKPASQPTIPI

Target: HLA-E*0103 (Homo sapiens, UniProt P13747)
Assay: HLA-E peptide refolding into monomer complexes
Format: biochemical

SLLMWITQV
refolding of HLA-E*0103/peptide: successfully refold HLA-E*0103/peptide into stable monomer complexes
